The entries are a selection whose mix differs from that of the whole data set. Some salts or complexes appear as unconnected parts, following the source record. Calls of active or inactive are those of the source.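 Rule for the calls: active = inhibition above the mean inhibition of all tested compounds plus 3 SD, set per campaign (cut at about 40% in these data); inactive = the rest.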
biological target: Induced myeloid leukemia cell differentiation protein Mcl-1 (Homo sapiens) (UniProt Q07820); test: inhibitors of MCL1 binding to BIM-BH3, primary screen, biochemical, fluorescence polarization (AID 2057); conditions: GST-MCL1 / FITC-Bim-BH3 fluorescence polarization; at 10.9 µM; hits give high values;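 note: 0% = DMSO wells and 100% = unlabeled Bim-BH3 peptide control; higher means more loss of mP so more displacement of Bim peptide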

Sequences of proteins named here, by UniProt entry; tags and fusion partners are left off.
UniProt Q07820, whole entry: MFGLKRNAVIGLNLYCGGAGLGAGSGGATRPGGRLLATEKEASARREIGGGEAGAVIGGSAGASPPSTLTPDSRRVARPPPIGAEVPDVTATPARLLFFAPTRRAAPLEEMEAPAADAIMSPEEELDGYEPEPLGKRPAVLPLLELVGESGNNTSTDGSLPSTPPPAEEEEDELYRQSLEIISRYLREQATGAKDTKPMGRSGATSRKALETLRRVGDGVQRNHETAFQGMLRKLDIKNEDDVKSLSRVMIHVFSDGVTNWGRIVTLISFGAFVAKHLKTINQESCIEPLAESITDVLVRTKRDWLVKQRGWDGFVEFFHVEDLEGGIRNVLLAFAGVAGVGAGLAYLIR

| SMILES | inhibition |
| --- | --- |
| CC(C)(C)c1ccc(OP(C)(=O)O)cc1 | inactive: 3% |
| COc1ccccc1OP(C)(=O)Nc1ccccc1Br (stereo unspecified) | inactive: 1.25% |
| CN(C)C(=O)c1c([N+](=O)[O-])cc([N+](=O)[O-])cc1[N+](=O)[O-] | inactive: 4.81% |
| CCN(CC)CC(O)COC(=O)C(O)(c1ccccc1)C1CCCCC1 (stereo unspecified) | inactive: -2.05% |
| COc1ccc(OP(C)(=O)Nc2ccc(Br)cc2)cc1 (stereo unspecified) | inactive: 7.59% |
| CP(=O)(Oc1ccccc1)N1CCOC1=O (stereo unspecified) | inactive: -1.42% |
| CCc1ccc(OP(C)(=O)Nc2cccnc2)cc1 (stereo unspecified) | inactive: 1.85% |
| COc1ccccc1OP(C)(=O)Nc1c(C)n(C)n(-c2ccccc2)c1=O (stereo unspecified) | inactive: 6.62% |
| O=C(OCCCN1CCCC1)C(O)(c1ccccc1)C1CCCCC1 (stereo unspecified) | inactive: -0.94% |
| Nc1ccc2c(ccc3cccnc32)n1.O=[N+]([O-])c1cc([N+](=O)[O-])c(O)c([N+](=O)[O-])c1 | inactive: 8.63% |
| CP(=O)(OC12CC3CC(CC(C3)C1)C2)OC12CC3CC(CC(C3)C1)C2 | inactive: 1.41% |
| CCOC(=O)c1ccc(NP(C)(=O)Oc2ccc(Cl)cc2)cc1 (stereo unspecified) | inactive: 1.51% |
| O=[N+]([O-])c1cc([N+](=O)[O-])c(NCC2CCS(=O)(=O)C2)c([N+](=O)[O-])c1 (stereo unspecified) | inactive: 0.32% |
| COc1ccc(OP(C)(=O)Nc2cccc(Br)c2)cc1 (stereo unspecified) | inactive: 3.33% |
| COc1ccc(NP(C)(=O)Oc2ccccc2OC)cc1 (stereo unspecified) | inactive: 2.49% |
| CN(C)CCOC(=O)C(O)(c1ccccc1)C1CCCCC1 (stereo unspecified) | inactive: 6.81% |

| SMILES | inhibition |
| --- | --- |
| CP(=O)(Nc1ccc2c(c1)OCCO2)Oc1ccccc1 (stereo unspecified) | inactive: 6.66% |
| Cc1ccccc1NP(C)(=O)Nc1ccccc1C | inactive: -0.85% |
| CP(=O)(Nc1ccc(SC(F)(F)F)cc1)Oc1ccc(F)cc1 (stereo unspecified) | inactive: 2.07% |
| CCOP(C)(=S)SCC(=O)NC(C)(CC)C(=O)O (stereo unspecified) | inactive: 5.42% |
| O=C(OCCN1CCN(CCOCc2ccccc2)CC1)C(O)(c1ccccc1)c1ccccc1 | inactive: 2.02% |
| O=C(OC1CN2CCC1CC2)c1ccc([N+](=O)[O-])cc1 (stereo unspecified) | inactive: 3.33% |
| COc1ccc2c(c1O)-c1c(O)c(OC)cc3c1[C@H](C2)[N+](C)(C)CC3.O=[N+]([O-])c1cc([N+](=O)[O-])c([O-])c([N+](=O)[O-])c1[O-] | inactive: 17.7% |
| CC(C)c1ccc(OP(C)(=O)Nc2ccc(SC(F)(F)F)cc2)cc1 (stereo unspecified) | inactive: 10.8% |
| CP(=O)(Nc1ccccc1F)Oc1ccccc1 (stereo unspecified) | inactive: -0.56% |
| CCN(CC)CCCOC(=O)C(O)(c1ccccc1)C1CCCCC1 (stereo unspecified) | inactive: -0.66% |
| O=[N+]([O-])c1cc([N+](=O)[O-])c(OC2CCCCC2O)c([N+](=O)[O-])c1 (stereo unspecified) | inactive: 3.05% |
| CCCCCOc1ccc(NP(C)(=O)Oc2ccc(Cl)cc2Cl)cc1 (stereo unspecified) | inactive: 3.03% |
| CP(=O)(Nc1ccccc1)Oc1ccc(F)cc1 (stereo unspecified) | inactive: 0.31% |
| COc1ccc(OP(C)(=O)Nc2ccc(SC(F)(F)F)cc2)cc1 (stereo unspecified) | inactive: 3.9% |
| CCOC(=O)c1ccc(NP(C)(=O)Oc2ccc(F)cc2)cc1 (stereo unspecified) | inactive: 4.45% |
